Values quoted from earlier work as cited in publication PMC10051989.

The chains behind the UniProt entries cited, without tags or fusion partners. Residues count along the entry.
UniProt P78352, 61-249: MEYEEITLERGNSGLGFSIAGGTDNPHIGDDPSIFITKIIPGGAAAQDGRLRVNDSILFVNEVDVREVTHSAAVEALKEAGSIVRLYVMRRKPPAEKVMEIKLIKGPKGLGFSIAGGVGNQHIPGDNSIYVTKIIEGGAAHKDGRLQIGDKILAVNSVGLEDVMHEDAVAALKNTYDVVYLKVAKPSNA

Target: Tat-N-dimer (Tat-NPEG4(IETDV)2)

In the case of PSD-95 PDZ1-2 (from UniProt P78352), the Kd is given as 4.6 nM.
